Compound activity as filed in PubChem.
Sampled rows, rich in hits. Any-hit rate of the full collection: about 13%.
KDM4E inh = inhibitors of human JMJD2E histone demethylase | JMJD2E catalytic domain, FDH-coupled NADH fluorescence (FDH is formaldehyde dehydrogenase) | Potency, µM (doses to about 57.1 µM), hits mostly inhibitors | actives 1.6% (n = 230,000) | AID 2147; active = well fitted inhibition curve with a large enough effect, not every such curve was filed as active; inconclusive = small, poorly fitted or top-dose-only effect, or another doubt; inactive = no such curve, though single readings can be large or run the other way; also: nearly all actives have a fitted effect of over 50% in size
ALDH1A1 block = blocks purified human ALDH1A1 activity; Potency, µM (titrated, usually from 75.3 µM), hits mostly inhibitors; P00352; actives 7.3% (n = 220,000); Purified ALDH1A1, NADH fluorescence, propionaldehyde substrate; active = well fitted inhibition curve with a large enough effect, not every such curve was filed as active; inconclusive = small, poorly fitted or top-dose-only effect, or another doubt; inactive = no such curve, though single readings can be large or run the other way
G9a inh = inhibitors of human histone lysine methyltransferase G9a. G9a H3K9 monomethylation, AlphaScreen, 2 h. Potency, µM (titrated, usually from 102 µM), actives largely listed as inhibitors. actives 8.8% (n = 350,000); also: nearly all actives have a fitted effect of over 75% in size
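Methyltransferase reactions run at room temperature for 2 h (20 nM enzyme, 500 nM biotin-H3K9 peptide, 20 uM SAM) after a 15 min compound preincubation; product detected by AlphaScreen beads and anti-H3K9me1 antibody.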
LMNA splice mod = LMNA splicing modulation; AID 1487; HeLa LMNA splicing GFP/RFP minigene ratio, 48 h; actives 0.01% (n = 200,000); Potency, µM (titrated, usually from 46.1 µM), usual class: inhibitors; active = well fitted inhibition curve with a large enough effect in the signal ratio, with a control signal flat, not every such curve was filed as active; inconclusive = small, poorly fitted or top-dose-only effect, or effect the other way, or a change in a side signal; the % refers to the signal ratio
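S3 HeLa cells stably expressing lamin A-EGFP splicing minigene plus DsRed2, 600 cells/well, 48 h compound exposure at 37C. Laser-scanning cytometry; analysed as GFP (500-530 nm)/RFP (575-640 nm) total intensity ratio; 0.5% DMSO vehicle.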
miR-21 reporter = miR-21 reporter, rising signal | HeLa miR-21 FLuc reporter, luciferase, 48 h | Potency, µM (top dose mostly 38.3 µM) | 340,000 tested, under 10 active | AID 2288; active = well fitted rising curve with a large enough effect; inconclusive = small, poorly fitted or top-dose-only effect; inactive = no such curve, though single readings can be large or run the other way;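 note: miR-21 action dims this reporter so a rising signal means less miR-21 action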
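Luminescence from a firefly luciferase reporter carrying a miR-21 binding site downstream, stably expressed under a CMV promoter in HeLa cells that make miR-21 endogenously, reports miRNA modulation after 48 h compound exposure up to approximately 40uM final.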
Sfp PPTase inh = inhibitors of Bacillus subtilis Sfp phosphopantetheinyl transferase | Q9F4F7 | Biochemical Sfp PPTase activity, qHTS | Potency, µM, most hits filed as inhibitors | actives 3.5% (n = 310,000) | AID 1490;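 also: the enzyme is Sfp with the accession as filed and its product quenches rhodamine fluorescence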
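Step 1, compound plus 15 nM Sfp-PPTase, 15 min, room temperature. Step 2, add rhodamine-CoA (5 uM) and BHQ-2-YbbR (12.5 uM). Step 3, read 525/598 nm fluorescence at 0 and 30 min.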
Hits are given with their value; . = inactive; ? = inconclusive; / = no result given; ! = a repeat was not active; [ ] = remark or other dose. Unless noted, calls follow the shape of the dose curve; as a rule, active = well fitted curve in the direction sought with a large enough effect; inconclusive = small, poorly fitted or top-dose-only effect, or another doubt; inactive = no such curve, though single readings can be large; an effect the other way counts as inactive or inconclusive.

SMILES | KDM4E inh | ALDH1A1 block | G9a inh | LMNA splice mod | miR-21 reporter | Sfp PPTase inh
CC1=C(C(=O)c2ccccc2)C(c2ccc(OC(F)F)cc2)NC(=S)N1 (configuration not stated) | . | 1.1µM | . | ? | . | .
COc1ccc(C2NC(=S)NC(C)=C2C(=O)N2CCOCC2)cc1 (configuration not stated) | . | ? | 40µM | . | . | ?
Cc1cc(C)n(S(=O)(=O)c2ccc(C(C)(C)C)cc2)n1 | . | 13µM | .[12.7 µM] | . | . | .
CN(CC(=O)NC(=O)NCc1ccco1)Cc1nc2ccccc2c(=O)[nH]1 | . | ? | . | . | . | 89µM
O=C(CCc1nc2ccccc2c(=O)[nH]1)NCc1ccco1 | . | . | . | ? | . | .
Cc1cc(=O)oc2c1c(C)nn2-c1ccc(C(=O)OC(C)C)cc1 | . | 1.1µM | ? | . | . | .
Cc1ccc(NC2c3ncccc3C(=O)N2c2ccccc2C)cc1C (configuration not stated) | 14µM | ? | ? | . | . | 45µM
CCOc1ccc(N2C(=O)c3cccnc3C2Nc2ccc(Cl)cc2)cc1 (configuration not stated) | . | . | . | . | . | .
Cn1cc(Br)c(C(=O)NC(=S)N2CCN(c3ccccn3)CC2)n1 | . | . | 40µM | . | . | ?
O=C(NC(=S)N1CCN(c2ccccc2)CC1)c1ccccc1 | / | / | . | / | . | .
O=C(NC(=S)N1CCN(C2CCCCC2)CC1)c1ccccc1 | . | . | 50µM | / | . | .
O=C(NC(=S)N1CCN(c2ccccn2)CC1)c1ccccc1 | . | . | 40µM | . | . | .
O=C(NC(=S)N1CCCCCC1)c1ccccc1 | / | / | / | / | . | .
CCc1ccc2oc(-c3ccc(C)c(NC(=O)c4ccc(C#N)cc4F)c3)nc2c1 | / | / | . | / | . | /
COC(=O)c1nc(-c2ccc(C)cc2)oc1N(C)C | ? | ? | . | . | . | .
Cc1nc(S(=O)(=O)c2ccc(Cl)cc2)c(N(C)C)o1 | / | / | ? | / | . | .
COc1ccccc1-c1nc(S(=O)(=O)c2ccc(Cl)cc2)c(N(C)C)o1 | . | 24µM | 2.8µM | . | . | ?
Cc1ccc(S(=O)(=O)c2nc(-c3ccccc3Cl)oc2N(C)C)cc1 | / | / | / | / | . | .
COc1cc(-c2nc(S(=O)(=O)c3ccc(C)cc3)c(N(C)C)o2)cc(OC)c1OC | ? | ? | 3.5µM | . | . | 56µM
Cc1ccc(-c2nc(S(=O)(=O)c3ccc(C)cc3)c(N(C)C)o2)cc1 | / | / | 10µM | / | . | ?
COc1ccccc1/C=C/c1nc(S(=O)(=O)c2ccccc2)c(N(C)C)o1 | / | / | 35µM | / | . | .
Cc1cccc(C(=O)N2CCNC(=O)C2CC(=O)Nc2cccc(Cl)c2)c1 (configuration not stated) | / | / | . | / | . | .
CC(O)CNC(=O)C(=O)Nc1c2c(nn1-c1ccc(Cl)cc1)CSC2 (configuration not stated) | / | / | ? | ? | . | /
O=S(=O)(O)c1cc(I)c(O)c2ncccc12 | / | / | ? | / | / | 2.5µM
Cc1ccc(S(=O)(=O)Nc2cc(S(=O)(=O)c3ccc(C)cc3)c(O)c3cccnc23)cc1 | / | / | / | / | / | .
SMILES | KDM4E inh | ALDH1A1 block | G9a inh | LMNA splice mod | miR-21 reporter | Sfp PPTase inh
Oc1c(I)cc(I)c2cccnc12 | 14µM | . | 50µM | ? | . | 50µM!
Cc1ccc(CN2CCN(C3CCN(S(=O)(=O)N(C)C)CC3)C(=O)C2=O)cc1 | / | / | . | / | . | /
CSC1=NC2C(N1)N(C)C(=O)N2C (configuration not stated) | . | . | 7.9µM | . | . | .
COc1cccc(-c2csc(-c3c(N)c(C(=O)c4ccc5c(c4)OCO5)n4ccccc34)n2)c1 | / | / | . | / | . | /
O=[N+]([O-])c1ccc(N=Nc2c(O)[nH]c3ccc(F)cc23)cc1 | / | / | 40µM | / | . | .
CCc1ccc(NC(=O)CSc2nc(=O)n(Cc3ccncc3)c3c2CCC3)cc1 | / | / | . | . | . | /
COc1cc(/C=C2\SC(=S)N(NS(=O)(=O)c3ccccc3)C2=O)ccc1O | . | / | 40µM | / | . | .
COc1cc(/C=C2\SC(=S)N(NS(=O)(=O)c3ccc(C)cc3)C2=O)cc(OC)c1OC | . | / | / | / | . | .
COc1ccc(/C=C2/SC(=S)N(NS(=O)(=O)c3ccccc3)C2=O)cc1 | / | / | ? | / | . | .
COc1cc(/C=C2\SC(=S)N(NS(=O)(=O)c3ccc(C)cc3)C2=O)ccc1O | . | 25µM | 25µM | / | . | .
COC(=O)[C@@H](NC(=O)O[C@H]1C(=O)c2cc(OC)ccc2O[C@@H]1c1ccc(OC)c(Br)c1)C(C)C | ? | ? | / | / | / | .
Cc1ccc(OCCOCCN2CCCCC2)c([N+](=O)[O-])c1 | . | ? | / | / | . | 56µM
Cc1ccc(OCCOc2cccc3ccc(C)nc23)c([N+](=O)[O-])c1 | . | 14µM | . | / | . | ?
COCCNCCCCOc1ccc(C)cc1[N+](=O)[O-] | . | 2.8µM | ? | . | . | .
COCCNCCCOc1ccc(C)cc1Br | . | ? | / | / | . | .
Cc1ccc(OCCN2CCCCCC2)c(C)c1 | . | . | .[12.7 µM] | . | . | .
C=CCNCCCCOc1ccc(C)cc1[N+](=O)[O-] | . | . | 13µM | . | . | .
CCC(C)NCCCCOc1ccc(C)cc1[N+](=O)[O-] (configuration not stated) | . | . | .[0.501 µM] | .[0.0737 µM] | . | ?
Cc1ccc2cccc(OCc3cccc([N+](=O)[O-])c3)c2n1 | / | / | .[2.33 µM] | / | . | .
Cc1ccc(-c2c3c(=O)n(C)c(=O)n(C)c3c3c(C)nc4ccccc4n23)cc1 | / | / | . | / | . | /
COc1cccc(OCCOCCOc2ccc(C)cc2[N+](=O)[O-])c1 | . | ? | . | . | . | .
COCCCNCCOCCOc1ccc(C)cc1[N+](=O)[O-] | ? | ? | 14µM | . | . | .
COc1ccc(OCCOCCOc2ccc(C)cc2[N+](=O)[O-])cc1 | . | 25µM | . | . | . | .
Cc1onc(-c2ccccc2Cl)c1C(=O)Nc1nnc(C(C)C)s1 | . | . | 50µM | . | . | .
Cc1nnc(NC(=O)c2c(-c3ccccc3Cl)noc2C)s1 | . | . | . | . | . | .
SMILES | KDM4E inh | ALDH1A1 block | G9a inh | LMNA splice mod | miR-21 reporter | Sfp PPTase inh
Cc1cnc(NC(=O)c2sc3ccccc3c2Cl)s1 | ? | ? | . | . | . | .
CC(C)c1nnc(NC(=O)c2sc3ccccc3c2Cl)s1 | . | ? | 45µM | . | . | .
COC(=O)c1c(NC(=O)c2c(-c3ccccc3Cl)noc2C)sc2c1CCC2 | ? | ? | ? | . | . | 28µM
Cc1onc(-c2ccccc2Cl)c1C(=O)O/N=C(\N)c1ccc([N+](=O)[O-])o1 | . | 13µM | 35µM | / | ? | .
Cc1cccc(CNC(=O)Cn2c(-c3cccs3)cc3ccccc32)c1 | / | / | . | . | . | /
O=C(NCCc1c[nH]c2ccccc12)c1ccccc1O | / | / | / | / | / | .
O=C(Nc1c2c(nn1-c1ccc(F)cc1)CS(=O)C2)c1ccc2c(c1)OCO2 (configuration not stated) | / | / | / | / | . | .
